From PMC5636616, “Studies on the Interaction of the Histone Demethylase KDM5B with Tricarboxylic Acid Cycle Intermediates” (Journal of Molecular Biology, 2017) come the findings set out here.

Where two headings read alike, the source gives them in different places.

The target of this experiment is T1, KDM5B (Homo sapiens, UniProt Q9UGL1).
T1 construct: purified recombinant KDM5B (produced in Sf9 insect cells, M1-R822); made in house; host or cells: Sf9 insect cells
T1 sequence (Q9UGL1 1-822): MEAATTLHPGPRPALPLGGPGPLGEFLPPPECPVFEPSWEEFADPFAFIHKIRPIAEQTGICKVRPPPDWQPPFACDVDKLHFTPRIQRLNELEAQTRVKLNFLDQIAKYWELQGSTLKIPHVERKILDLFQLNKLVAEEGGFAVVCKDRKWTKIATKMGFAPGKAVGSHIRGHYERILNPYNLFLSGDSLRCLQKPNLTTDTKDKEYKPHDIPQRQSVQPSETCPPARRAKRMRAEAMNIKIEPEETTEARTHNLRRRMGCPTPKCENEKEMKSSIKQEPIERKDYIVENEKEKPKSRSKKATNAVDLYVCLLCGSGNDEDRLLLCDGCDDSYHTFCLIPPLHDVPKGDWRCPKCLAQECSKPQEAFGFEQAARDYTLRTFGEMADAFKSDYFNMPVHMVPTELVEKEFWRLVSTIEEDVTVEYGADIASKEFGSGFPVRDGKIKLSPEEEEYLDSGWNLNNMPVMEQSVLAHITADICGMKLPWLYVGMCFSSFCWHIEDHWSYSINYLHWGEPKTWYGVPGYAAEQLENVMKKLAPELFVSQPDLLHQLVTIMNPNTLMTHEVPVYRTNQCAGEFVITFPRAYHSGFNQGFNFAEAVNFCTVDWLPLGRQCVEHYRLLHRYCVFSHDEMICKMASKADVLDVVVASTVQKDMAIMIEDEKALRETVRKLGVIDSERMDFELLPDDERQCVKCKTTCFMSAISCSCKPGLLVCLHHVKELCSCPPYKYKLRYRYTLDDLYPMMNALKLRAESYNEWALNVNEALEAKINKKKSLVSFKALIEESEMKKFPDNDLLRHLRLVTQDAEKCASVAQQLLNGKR
Kind of experiment: KDM5B inhibition assay, MALDI-TOF-MS (IC50). Format: biochemical. Particulars: for IC50: 3 μM 2OG, 5 μM H3K4me2(1–21).

On to `O=C(O)CC(C(=O)O)C(O)C(=O)O` (stereo not drawn) [Isocitrate], for which the IC50 result is, setting by setting: (0.6 μM KDM5B, 10 μM Fe(II), 500 μM L-ascorbate, pH 7.5, errors 95% confidence intervals) “Inactive”; (read-out: IC50) above 1000 µM. Also, under “read-out: inhibition at 1 mM”, the inhibition at 1000 µM stood at 10%.
